Measurements as given in patent US7235560B2, “Pyrimidine derivative as selective COX-2 inhibitors” (priority 2002, dated 2007).

The chains behind the UniProt entries cited, without tags or fusion partners. Residues count along the entry.
UniProt P35354, 18-604 limits assumed: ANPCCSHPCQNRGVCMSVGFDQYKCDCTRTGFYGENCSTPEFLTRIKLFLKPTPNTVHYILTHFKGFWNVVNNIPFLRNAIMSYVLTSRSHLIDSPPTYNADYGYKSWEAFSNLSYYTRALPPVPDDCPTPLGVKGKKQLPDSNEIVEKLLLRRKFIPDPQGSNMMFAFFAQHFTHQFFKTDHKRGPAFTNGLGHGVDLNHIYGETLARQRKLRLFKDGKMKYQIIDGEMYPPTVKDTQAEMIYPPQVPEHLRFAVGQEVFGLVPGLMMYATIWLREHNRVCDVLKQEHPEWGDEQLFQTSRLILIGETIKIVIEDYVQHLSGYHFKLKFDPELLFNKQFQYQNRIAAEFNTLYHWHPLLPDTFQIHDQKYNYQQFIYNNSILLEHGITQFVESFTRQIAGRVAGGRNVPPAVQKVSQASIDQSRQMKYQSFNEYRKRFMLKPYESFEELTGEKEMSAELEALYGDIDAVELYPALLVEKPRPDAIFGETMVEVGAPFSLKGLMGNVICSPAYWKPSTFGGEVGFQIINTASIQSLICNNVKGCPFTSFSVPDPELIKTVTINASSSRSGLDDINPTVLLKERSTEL
UniProt P23219, 24-599 limits assumed: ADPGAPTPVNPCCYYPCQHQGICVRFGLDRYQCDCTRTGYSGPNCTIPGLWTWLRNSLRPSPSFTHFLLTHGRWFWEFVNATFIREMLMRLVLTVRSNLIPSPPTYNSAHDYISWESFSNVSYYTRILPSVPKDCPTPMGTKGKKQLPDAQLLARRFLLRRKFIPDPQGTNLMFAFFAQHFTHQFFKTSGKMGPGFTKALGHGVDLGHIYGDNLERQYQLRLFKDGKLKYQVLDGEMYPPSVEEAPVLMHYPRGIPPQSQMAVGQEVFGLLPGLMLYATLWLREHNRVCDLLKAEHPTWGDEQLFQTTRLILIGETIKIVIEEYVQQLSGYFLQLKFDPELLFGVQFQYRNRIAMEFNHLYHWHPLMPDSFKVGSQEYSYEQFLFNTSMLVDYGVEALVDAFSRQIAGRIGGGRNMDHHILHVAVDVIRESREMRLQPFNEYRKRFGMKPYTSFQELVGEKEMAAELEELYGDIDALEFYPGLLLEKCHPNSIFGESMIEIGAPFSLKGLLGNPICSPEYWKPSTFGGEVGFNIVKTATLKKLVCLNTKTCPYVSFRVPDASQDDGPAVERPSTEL

Columns and labels:
microsomal h-COX2 = microsomal h-COX2 (Homo sapiens, UniProt P35354); assay: Microsomal assay, inhibition of h-COX2 (PGE2 by EIA); format: biochemical; conditions: read-out: COX-2: IC50; microsomal preparation from baculovirus infected SF9 cells; 1 hour preincubation; 0.1 μM arachidonic acid
Method: Inhibitory activity against microsomal h-COX2 was assessed against a microsomal preparation from baculovirus infected SF9 cells. An aliquot of microsomal preparation was thawed slowly on ice and a 1/40,000 dilution prepared from it into the assay buffer (sterile water, degassed with argon containing 100 mM HEPES (pH 7.4), 10 mM EDTA (pH7.4), 1 mM phenol, 1 mM reduced glutathione, 20 mg/ml gelatin and 0.001 mM Hematin). Once diluted the enzyme solution was then sonicated for 5 seconds (Branson sonicator, setting 4, 1 cm tip) to ensure a homogeneous suspension. 155 μl enzyme solution was then added to each well of a 96-well microtitre plate containing either 5 μl test compound (40× required test concentration) or 5 μl DMSO for controls. Plates were then mixed and incubated at room temperature for 1 hour. Following the incubation period, 40 μl of 0.5 μM arachidonic acid was added to each well to give a final concentration of 0.1 μM. Plates were then mixed and incubated for exactly 10 minutes (room temperature) prior to addition of 25 μl 1M HCl (hydrochloric acid) to each well to stop the reaction. 25 μl of 1M NaOH (sodium hydroxide) was then added to each well to neutralise the solution prior to determination of PGE2 levels by enzyme immunoassay (EIA).
The following IC50 values for inhibition of COX-2 and COX-1 were obtained from the microsomal assay for compounds of the invention: […]

COX-1 = COX-1 (Homo sapiens, UniProt P23219); assay: Microsomal assay, inhibition of COX-1; format: biochemical; conditions: read-out: COX-1: IC50

CS(=O)(=O)c1ccc(-c2cc(C(F)(F)F)nc(NC3CCCC3)n2)nc1
IC50 (microsomal h-COX2): 433 nM | IC50 (COX-1): > 96100 nM

Cc1ccc(CNc2nc(-c3ccc(S(C)(=O)=O)cn3)cc(C(F)(F)F)n2)cc1
IC50 (microsomal h-COX2): 193 nM | IC50 (COX-1): > 100000 nM

CS(=O)(=O)c1ccc(-c2cc(C(F)(F)F)nc(NCc3ccco3)n2)nc1
IC50 (microsomal h-COX2): 748 nM | IC50 (COX-1): 46800 nM

Cc1ccc(CNc2nc(-c3ccc(S(C)(=O)=O)cn3)cc(C(F)(F)F)n2)o1
IC50 (microsomal h-COX2): 218 nM | IC50 (COX-1): > 100000 nM

CS(=O)(=O)c1ccc(-c2cc(C(F)(F)F)nc(NCc3ccccn3)n2)nc1
IC50 (microsomal h-COX2): 542 nM

CN(Cc1ccccc1)c1nc(-c2ccc(S(C)(=O)=O)cn2)cc(C(F)(F)F)n1
IC50 (microsomal h-COX2): 1 nM | IC50 (COX-1): > 100000 nM

CN(Cc1ccco1)c1nc(-c2ccc(S(C)(=O)=O)cn2)cc(C(F)(F)F)n1
IC50 (microsomal h-COX2): 72 nM | IC50 (COX-1): > 100000 nM

CS(=O)(=O)c1ccc(-c2cc(C(F)(F)F)nc(NCc3ccc(Cl)cc3)n2)nc1
IC50 (microsomal h-COX2): 354 nM | IC50 (COX-1): 90200 nM

CN(c1nc(-c2ccc(S(C)(=O)=O)cn2)cc(C(F)(F)F)n1)C1CCCCC1
IC50 (microsomal h-COX2): 77 nM | IC50 (COX-1): 26300 nM

CS(=O)(=O)c1ccc(-c2cc(C(F)(F)F)nc(NCc3cccs3)n2)nc1
IC50 (microsomal h-COX2): 40 nM
